In US20120190579A1, “Functionalisation of Solid Substrates” (priority 2009, published 2012):

Conditions: glutathione 1 mM, 37° C., 4 h, pH 7.4 (20 mM HEPES, 100 mM KCl)

**Q.** Which “cleavage of adduct to Grb2-SH2 (L111C)” value does the source give for “GrB2-SH2 Domain L111C/Dibromomaleimide/Glutathione Adduct” here?
**A.** Its value is “quantitative”.
